Results as given in PubChem BioAssay AID1471 (National Center for Advancing Translational Sciences (NCATS), 2008).
The entries are a selection whose mix differs from that of the whole data set. Activity calls are given as the source filed them. Calls follow the shape of the dose curve; as a rule, active = well fitted activation curve with a large enough effect; inconclusive = small, poorly fitted or top-dose-only effect; inactive = no such curve, though single readings can be large or run the other way.

Test: qHTS Multiplex Assay to Identify Dual Action Probes in a Cell Model of Huntington: Cytoprotection (ATP);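 also: toxic huntingtin expression switched on by the ecdysone agonist tebufenozide; % of control where 0% means no effect; nearly all actives have a fitted effect of over 45% in size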
Settings: PC12 HTT-Q103 induced, ATP luminescence, 40 h
Description: NIH Chemical Genomics Center [NCGC]
NIH Molecular Libraries Probe Production centers Network [MLPCN]
Assay Submitter (PI): Wei Zheng
Huntington's disease is a neurodegenerative disorder caused by a trinucleotide repeat expansion in Exon 1 of the Huntingtin gene. The CAG trinucleotide encodes glutamine and polyglutamine expansions cause cell death in selective areas of the brain. Huntington polyglutamine repeats have the tendency to form aggregates which are observable in later stages of the disease. The exact nature of the aggregates, whether toxic, protective, or insignificant, is unclear.
A stable PC12 cell line containing a gene fusion of Exon 1 of the Huntingtin gene linked to GFP under the control of the inducible ecdysone promoter were used as the cell-based model of Huntington Disease for high throughput screening. Exon 1 of the Huntingtin gene contained an expansion of 103 polyglutamines (Q103) which, when expressed, caused cell death and distinct, bright GFP aggregates. The amount of cell death and the size and intensity of GFP aggregates increased over time and induction level. The cell death were quantified with a measurement of ATP content in the cells. A maximal 40-50% of cell death was observed when the Huntington gene was induced in this cell line.
We optimized this assay in a homogeneous 1536 well format. A quantitative high throughput screen (qHTS) was conducted on the PC12 cells which were induced to express the toxic fusion construct. Small molecules which prevented cell death were identified by using a luminescent ATP quantification method (Perkin Elmer's ATPlite).
PC12 cells stably containing a construct with an ecdysone inducible promoter expressing GFP fused to the exon 1 of HTTQ103 (Huntington protein which containing a 103 ployglutamine expansion) were used.
NCGC Assay Protocol Summary:
Sequence, Parameter, Description
1, Reagent, 5 uL 1500 cells/well 1536 TC treated White clear bottom plate
2, Compound, 23 nL Tebufenozide inducer (100 nM final) to all columns
3, Compound, 23 nL 40 uM to 0.5 nM Libraries
5, Reagent, 5 ul ATPLite cell death assay reagent
6, Detector, 4 sec integration with a Viewlux Luminescent
Media consisted of phenol red free DMEM + 5% equine serum (Hyclone # SH30072.03 ), 5% supplemented Bovine Calf Serum (Hyclone # SH30074.03 ), 1x pen/strep, no G418
Control columns: 1 = DMSO, 2= 2 uM teb dilns (1:1), 4 = 100 nM Teb inducer. Sample columns received 100 nM Teb.

[1] = at 10 µM (top of the series) unless noted

## Cc1ccc(OP(=O)(Nc2nccs2)Oc2ccc(C)cc2)cc1
[1]
  cytoprotection (ATP increase): inactive: -1.27%

## O=[N+]([O-])c1ccc(C[As](=O)(O)O)cc1
[1]
  cytoprotection (ATP increase): inactive: 26.1%

## COc1ccccc1OP(=O)(Nc1ccc(C)cn1)Oc1ccccc1OC
[1]
  cytoprotection (ATP increase): inactive: 5.14%

## Cc1ccc(N/C(=N/P(=O)(N2CCOCC2)N2CCOCC2)N2CCOCC2)cc1
[1]
  cytoprotection (ATP increase): inactive: 5.3%

## NC(=O)c1cc([N+](=O)[O-])cc([N+](=O)[O-])c1N
[1]
  cytoprotection (ATP increase): inactive: -37.1% [at 56.4 µM]

## Nc1cccc2ccc([As](=O)(O)O)cc12
[1]
  cytoprotection (ATP increase): inactive: 1.95%

## C(Cc1nn[nH]n1)c1nn[nH]n1
[1]
  cytoprotection (ATP increase): inactive: -14.1%

## CCN(N=Nc1nonc1N)c1nonc1N
[1]
  cytoprotection (ATP increase): inactive: -9.38% [at 1.9 µM]

## [N-]=[N+]=NCC(O)CN=[N+]=[N-] (stereo unspecified)
[1]
  cytoprotection (ATP increase): inactive: -3.82%

## Cc1ccc(NP(=O)(Oc2ccccc2F)Oc2ccccc2F)nc1
[1]
  cytoprotection (ATP increase): inactive: -3.23%

## CCOP(=O)(Nc1ccccc1)OCC
At 10 µM (top of the series)
  cytoprotection (ATP increase): inactive: 12.2%
At 56.4 µM (top of the series)
  cytoprotection (ATP increase): inactive: 19.7%

## Cc1cc(SC(NC(=O)c2ccc(F)cc2)C(Cl)(Cl)Cl)ncn1 (stereo unspecified)
[1]
  cytoprotection (ATP increase): inactive: 1.16%

## O=P(Nc1nc2ccc(Cl)cc2s1)(c1ccccc1)c1ccccc1
[1]
  cytoprotection (ATP increase): inactive: -1.87%

## O=C(O)c1ccccc1[As](=O)(O)O
[1]
  cytoprotection (ATP increase): inactive: -0.431%

## CC(=O)Nc1ccc([As](=O)(O)O)cc1
[1]
  cytoprotection (ATP increase): inactive: 3.23%

## CN(C)C(=O)Oc1noc2ccccc12
[1]
  cytoprotection (ATP increase): inactive: 23.5%

## O=c1c2cc([N+](=O)[O-])ccc2[nH]c2c([N+](=O)[O-])cc([N+](=O)[O-])cc12
[1]
  cytoprotection (ATP increase): inactive: -25.4%

## Cc1ccccc1OP(=O)(Nc1ccccn1)Oc1ccccc1C
[1]
  cytoprotection (ATP increase): inactive: 8.97%

## CCC(=O)N1C2C3N(C(=O)CC)C1C1N(C(=O)CC)C(C(N1C(=O)CC)N3C(=O)CC)N2C(=O)CC
[1]
  cytoprotection (ATP increase): inactive: 2.37% [at 56.4 µM]

## O=C(OC1CN2CCC1CC2)c1ccccc1 (stereo unspecified)
[1]
  cytoprotection (ATP increase): inactive: 12.1% [at 56.4 µM]

## Cc1ccc(OP(=O)(Nc2ccccn2)Oc2ccc(C)cc2)cc1
[1]
  cytoprotection (ATP increase): inactive: 32.4%

## COC(=O)c1cc2c(s1)N=C(c1ccccc1)N(C)P2(=O)N1CCOCC1 (stereo unspecified)
[1]
  cytoprotection (ATP increase): inactive: -22% [at 56.4 µM]

## Cc1ccc(NP(=O)(Oc2cccc(C)c2)Oc2cccc(C)c2)nc1
[1]
  cytoprotection (ATP increase): inactive: -7.84%

## CCOC(=O)NC(Sc1ccccc1)C(Cl)(Cl)Cl (stereo unspecified)
[1]
  cytoprotection (ATP increase): inactive: -37.5% [at 56.4 µM]

## c1ccc(-c2nn[nH]n2)c(-c2nn[nH]n2)c1
[1]
  cytoprotection (ATP increase): inactive: -15.6%

## O=C(NC1CCS(=O)(=O)C1)NP(=S)(Oc1ccccc1)Oc1ccccc1 (stereo unspecified)
[1]
  cytoprotection (ATP increase): inactive: -11.3% [at 56.4 µM]

## CCNC(=S)/N=C(\N)N[N+](=O)[O-]
[1]
  cytoprotection (ATP increase): inactive: -22% [at 1.9 µM]

## CC(=O)Nc1ccc(Oc2c([N+](=O)[O-])cc([N+](=O)[O-])cc2[N+](=O)[O-])cc1
[1]
  cytoprotection (ATP increase): inactive: -29.2% [at 56.4 µM]

## CC(=O)Nc1ccc([As](=O)(O)O)c(O)c1
[1]
  cytoprotection (ATP increase): inactive: 2.59%

## C[C@@H]1C=CCP(=O)(Oc2ccccc2)O1 (stereo partly specified)
[1]
  cytoprotection (ATP increase): inactive: 10.7%

## C[C@H]1OP(=O)(Oc2ccccc2)C[C@@H]2O[C@@H]21 (stereo partly specified)
[1]
  cytoprotection (ATP increase): inactive: -9.07%

## CC(C)(C)C(=O)NC(Sc1ccccc1)C(Cl)(Cl)Cl (stereo unspecified)
[1]
  cytoprotection (ATP increase): inactive: -32.1% [at 56.4 µM]

## CCOc1ccc(C2=NCC(CBr)S2)cc1 (stereo unspecified)
[1]
  cytoprotection (ATP increase): inactive: 17.7% [at 56.4 µM]

## O=P1(Nc2nc3ccc(Cl)cc3s2)COc2ccccc2O1 (stereo unspecified)
[1]
  cytoprotection (ATP increase): inactive: -11.5% [at 56.4 µM]

## C[C@@H](O)COc1ccc([As](=O)(O)O)cc1N
[1]
  cytoprotection (ATP increase): inactive: -0.0897%

## CN1CCC[C@H](OC(=O)C(c2ccccc2)c2ccccc2)C1
[1]
  cytoprotection (ATP increase): inactive: -4.83%

## c1nnnn1CCn1cnnn1
[1]
  cytoprotection (ATP increase): inactive: 0.594% [at 56.4 µM]

## O=P(Nc1nccs1)(c1ccccc1)c1ccccc1
[1]
  cytoprotection (ATP increase): inactive: -10.7% [at 56.4 µM]

## CC(C)C(=O)NC(Sc1ccccc1)C(Cl)(Cl)Cl (stereo unspecified)
[1]
  cytoprotection (ATP increase): inactive: 11.7%

## O=C(OC1CN2CCC1CC2)c1cccc(Cl)c1 (stereo unspecified)
[1]
  cytoprotection (ATP increase): inactive: 3.29% [at 56.4 µM]

## Nc1ccc([As](=O)(O)c2ccc([N+](=O)[O-])cc2)cc1
[1]
  cytoprotection (ATP increase): inactive: 9.02%

## C(Cc1nn[nH]n1)Cc1nn[nH]n1
[1]
  cytoprotection (ATP increase): inactive: -3.98%

## O=[As](O)(c1ccccc1)c1ccc(O)cc1
[1]
  cytoprotection (ATP increase): inactive: 6.08%

## O=[N+]([O-])c1ncn(CCn2cnc([N+](=O)[O-])n2)n1
[1]
  cytoprotection (ATP increase): inactive: 7.6%

## CN(C(=O)Cc1ccccc1)[C@H]1CC[C@@]2(CCCO2)C[C@@H]1N1CCCC1
[1]
  cytoprotection (ATP increase): inactive: 8.79% [at 56.4 µM]

## [N-]=[N+]=Nc1ccc([As](=O)(O)O)cc1
[1]
  cytoprotection (ATP increase): inactive: 3.04%

## Cc1cc([N+](=O)[O-])cc([N+](=O)[O-])c1O
[1]
  cytoprotection (ATP increase): inactive: -227% [at 56.4 µM]

## C[C@H]1OP(=O)(Oc2ccccc2)[C@H](O)[C@H](O)[C@H]1N=[N+]=[N-] (stereo partly specified)
[1]
  cytoprotection (ATP increase): inactive: 4.41%

## O=P(Nc1nc2ccccc2s1)(c1ccccc1)c1ccccc1
[1]
  cytoprotection (ATP increase): inactive: -3.9%

## O=P(Nc1ccccn1)(c1ccc(Br)cc1)c1ccc(Br)cc1
[1]
  cytoprotection (ATP increase): inactive: -10.7% [at 56.4 µM]
